Laboratory results as given in ChEMBL document CHEMBL5154942, “Discovery of Clinical Candidate NTQ1062 as a Potent and Bioavailable Akt Inhibitor for the Treatment of Human Tumors” (J Med Chem, 2022).

Amino acid sequences for entries named in this document (tags omitted). A change or cut given only in a name is not applied to a line headed by its entry.
UniProt P31749: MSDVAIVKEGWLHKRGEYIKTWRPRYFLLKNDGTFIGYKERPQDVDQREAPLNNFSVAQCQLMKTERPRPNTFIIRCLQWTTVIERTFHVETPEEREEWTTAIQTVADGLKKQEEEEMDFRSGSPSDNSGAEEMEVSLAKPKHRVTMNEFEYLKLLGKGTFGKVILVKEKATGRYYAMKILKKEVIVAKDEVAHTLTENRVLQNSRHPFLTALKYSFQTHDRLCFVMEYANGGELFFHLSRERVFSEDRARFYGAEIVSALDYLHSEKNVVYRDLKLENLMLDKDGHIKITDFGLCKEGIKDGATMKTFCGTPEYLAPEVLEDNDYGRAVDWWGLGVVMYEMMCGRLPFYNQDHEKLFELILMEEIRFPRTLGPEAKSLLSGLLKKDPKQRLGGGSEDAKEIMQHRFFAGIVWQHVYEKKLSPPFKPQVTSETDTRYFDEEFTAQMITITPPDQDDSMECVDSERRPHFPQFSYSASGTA

Target: RAC-alpha serine/threonine-protein kinase (Homo sapiens, UniProt P31749)
Test: Inhibition of recombinant AKT1 (104 to 480 end residues) (unknown origin) catalytic domain expressed in Sf21 cells using peptide substrate incubated for 1 hr in presence of ATP by caliper off-chip mobility shift assay

Work on `C[C@@H]1CC(=O)Nc2ncnc(N3CCN(C(=O)[C@H](CNC4CC4)c4ccc(Cl)cc4)[C@@H]4C[C@@H]43)c21` yielded an IC50 of 0.7 nM.
